This passage reports activation results from PubChem BioAssay AID602332 (National Center for Advancing Translational Sciences (NCATS), 2012).

Structures are written as SMILES. Values joined by “and” are separate entries in the source; they are usually repeats but may differ in a detail not shown here. Equal entries are not always repeated. The list shows a part of the results, in another mix than the full data. Active and inactive are the calls of the source. Calls follow the shape of the dose curve; as a rule, active = well fitted activation curve with a large enough effect; inconclusive = small, poorly fitted or top-dose-only effect; inactive = no such curve, though single readings can be large or run the other way.

The experiment is described as follows: qHTS for Inducers of the Endoplasmic Reticulum Stress Response (ERSR) in Human Glioma: qHTS. Also: % of control where 0% means no effect; nearly all actives have a fitted effect of over 35% in size. The note with it: U87-MG GRP78 promoter luciferase reporter, 16 h; active compounds read high.
In the case of `Nc1ccc([As](=O)(O)c2ccc(N)cc2)cc1`, the activation is inactive: 0.208%. As for `CC(=O)C1=CCCC2CCC1N2` (stereo unspecified), the activation is inactive: -3.88% and inactive: -2.47%. With `CC1CCN(C(=O)Oc2c(Cl)cc(Cl)c3cccnc23)CC1`, the activation is inactive: 11.8%. As for `c1cc(-c2nn[nH]n2)ccc1-c1nn[nH]n1`, the activation was inactive: -1.86%. As for `CN(C)C(=O)OCCc1n(C)cc[n+]1C`, the figure is inactive: -1.79%; as for `CC(C)c1nc(Nc2ccccc2)n(P(=O)(N(C)C)N(C)C)n1`, inactive: -2.39%; as for `COc1cc([N+](=O)[O-])c([N+](=O)[O-])cc1OC`, inactive: -4.57%. Turning to `CC(C)=N/N=C(\N)N[N+](=O)[O-]`, the activation is inactive: -6.93%.

As to `COc1ccc(C2=NCC(CBr)S2)cc1` (stereo unspecified), the activation is inactive: -0.844%. For the compound `CCc1nc2c(n1)c1c(non1O)c1c2no[n+]1[O-]`, the activation was inactive: -15.6%. For `O=[N+]([O-])c1cc([N+](=O)[O-])c(CCNc2ccccc2)c([N+](=O)[O-])c1` the value was inactive: -4.6%; for `Cc1ccc(NP(=O)(Oc2ccccc2)Oc2ccccc2)nc1`, inactive: -4.15%. For the compound `O=[N+]([O-])c1cccc2n[nH]nc12`, the activation is inactive: -2.53%. For `CC(=O)N1C2C3N(C(C)=O)C1C1N(C(C)=O)C(C(N1C(C)=O)N3C(C)=O)N2C(C)=O`, the activation is inactive: -0.985%. For `O=[N+]([O-])c1ncn(CCn2ncnc2[N+](=O)[O-])n1`, the activation was inactive: -2.52%.

For the compound `CC(C)(C)C(=O)NC(Sc1ccncn1)C(Cl)(Cl)Cl` (stereo unspecified), the activation was inactive: -6.2%.

`O=C(O)CNc1ccc([As](=O)(O)O)cc1`: the activation is inactive: -2.52%. With `COC(=O)C1(C)COP(=O)(Nc2ccccc2)OC1` (stereo unspecified), the activation was inactive: -6.6%. For `O=[N+]([O-])c1cccc(NC2=NCC(CBr)S2)c1` (stereo unspecified), the activation was inactive: -3.48%.

For the compound `Cc1cc(C=O)ccc1N(CCCl)CCCl`, the activation was inactive: 0.0407%. `O=P1(N(CCCl)CCCl)OCCCS1` (stereo unspecified): the activation is inactive: -4.67%. Regarding `O=P(/N=c1/nc(-c2ccccc2)n(-c2ccccc2)s1)(Nc1ccccc1)Nc1ccccc1`, the activation is inactive: 11%. Turning to `O=C(Nc1cc([As](=O)(O)O)ccc1O)c1ccccc1`, the activation was inactive: -5.04%. Consider `Nc1c(O)cc([N+](=O)[O-])cc1[N+](=O)[O-]`, for which the activation was inactive: -3.23%.

For `Nc1cccc2ccc([As](=O)(O)O)cc12`, the activation is inactive: 0.563%. For the compound `CCN(N=Nc1nonc1N)c1nonc1N`, the activation is inactive: -5.61%. Turning to `O=P(Nc1nc2ccc(Cl)cc2s1)(c1ccccc1)c1ccccc1`, the activation is inactive: 0.644%.

With `CN(C)P(=O)(N(C)C)n1c(Nc2ccccc2)nnc1-c1ccccc1`, the activation was inactive: 3.57%. In the case of `CCCC1OP(N)(=O)OCC1CC` (stereo unspecified), the activation is inactive: -1.56%. In the case of `CC(=O)Nc1ccc([As](=O)(O)O)cc1`, the activation was inactive: -4.09%.

For `O=C(O)c1ccccc1[As](=O)(O)O`, the activation was inactive: -11.1%. On to `Cc1ccc(NP(=O)(Oc2ccccc2F)Oc2ccccc2F)nc1`, for which the activation was inactive: -2.38%. For `CN(C(=O)Cc1ccc(Cl)c(Cl)c1)[C@H]1CCCC[C@@H]1N1CCCC1` the value was inactive: -3.85% [middle of 11 runs]; for `Cc1cc(SC(NC(=O)c2ccc(F)cc2)C(Cl)(Cl)Cl)ncn1` (stereo unspecified), inactive: -6.16%.

On to `CCOP(=O)(Nc1ccccc1)OCC`, for which the activation is inactive: -6.25%. Take `O=C(NC(Sc1ccncn1)C(Cl)(Cl)Cl)c1ccccc1` (stereo unspecified): the activation is inactive: -2.63%.

As to `Oc1ccccc1CNc1ccccn1`, the activation is inactive: -1.58%. As for `Nc1cc(N)c2nonc2c1[N+](=O)[O-]`, the activation was inactive: -4.54%. `CC(C)CC(=O)NC(Sc1ccc(Cl)cc1)C(Cl)(Cl)Cl` (stereo unspecified): the activation was inactive: -1.21%. For the compound `O=[N+]([O-])C1C(O)C(O)C([N+](=O)[O-])C(O)C1O` (stereo unspecified), the activation was inactive: 2.57%.

Take `Cc1ccc(N/C(=N/P(=O)(N2CCOCC2)N2CCOCC2)N2CCOCC2)cc1`: the activation is inactive: 1.04%. With `CN(C(=O)Cc1ccc(Cl)c(Cl)c1)[C@H]1CCCC[C@H]1N1CCCC1`, the activation is inactive: -1.25%. In the case of `NC(=O)c1cc([N+](=O)[O-])cc([N+](=O)[O-])c1N`, the activation was inactive: 0.208%.

As for `O=[N+]([O-])c1cc2c(cc1[N+](=O)[O-])OCO2`, the activation was inactive: -10%. For `CN1CCCC(OC(=O)C(c2ccccc2)c2ccccc2)C1` (stereo unspecified) the value was inactive: -7.79%; for `Clc1ccc(Cl)c(NC2=NCC(CBr)S2)c1` (stereo unspecified), inactive: -2.4%; for `Cc1ccc(OP(=O)(Nc2nccs2)Oc2ccc(C)cc2)cc1`, inactive: -2.04%. With `COc1ccccc1OP(=O)(Nc1ccc(C)cn1)Oc1ccccc1OC`, the activation is inactive: 1.04%.

As for `C[C@H]1OP(=O)(Oc2ccccc2)C[C@@H]2O[C@@H]21` (stereo partly specified), the activation is inactive: -1.19%.

For the compound `C[C@@H]1C=CCP(=O)(Oc2ccccc2)O1` (stereo partly specified), the activation was inactive: -2.38%. Regarding `Cc1ccccc1CN(C)C(=O)COC(=O)C(O)(c1ccccc1)c1ccccc1`, the activation was inactive: -0.609%.

`COC(=O)C1(C)COP(=O)(NCc2ccccc2)OC1` (stereo unspecified): the activation is inactive: -0.719%.

For `CC(=O)c1ccc(N2CC2c2ccncc2)cc1` (stereo unspecified), the activation is inactive: -3.86%. `N#C/C(=C\c1ccc(N(CCBr)CCBr)cc1)C(N)=O`: the activation was inactive: 0.355%.

Regarding `CC(=O)Nc1ccc(Oc2c([N+](=O)[O-])cc([N+](=O)[O-])cc2[N+](=O)[O-])cc1`, the activation was inactive: -3.82%. With `CC(=O)Nc1ccc([As](=O)(O)O)c(O)c1`, the activation was inactive: 2.96%. Consider `CCOc1ccc(C2=NCC(CBr)S2)cc1` (stereo unspecified), for which the activation is inactive: -0.975%. For `O=P1(Nc2nc3ccc(Cl)cc3s2)COc2ccccc2O1` (stereo unspecified), the activation was inactive: 0.42%.

On to `CC(C)(C)C(=O)NC(Sc1ccccc1)C(Cl)(Cl)Cl` (stereo unspecified), for which the activation is inactive: -6.24%.

For the compound `CCc1cc(O)c([N+](=O)[O-])c(C)c1[N+](=O)[O-]`, the activation is inactive: -1.13%.

On to `CCC(=O)N1C2C3N(C(=O)CC)C1C1N(C(=O)CC)C(C(N1C(=O)CC)N3C(=O)CC)N2C(=O)CC`, for which the activation is inactive: -2.62%. `CN(C(=O)Cc1ccc(Cl)c(Cl)c1)[C@@H]1CCCC[C@@H]1N1CCCC1`: the activation is inactive: 0.265%.

With `O=C(OC1CN2CCC1CC2)c1ccccc1` (stereo unspecified), the activation is inactive: -3.49% and inactive: -3.25%.

`Cc1ccc(OP(=O)(Nc2ccccn2)Oc2ccc(C)cc2)cc1`: the activation was inactive: 0.0171%. For the compound `CC(=O)NC(SC(=S)N(CC(C)C)CC(C)C)C(Cl)(Cl)Cl` (stereo unspecified), the activation is inactive: 2.9%. Take `COC(=O)c1cc2c(s1)N=C(c1ccccc1)N(C)P2(=O)N1CCOCC1` (stereo unspecified): the activation was inactive: -0.593%. Consider `O=c1c2cc([N+](=O)[O-])ccc2[nH]c2c([N+](=O)[O-])cc([N+](=O)[O-])cc12`, for which the activation is inactive: -6.38%. On to `CN(C)C(=O)Oc1noc2ccccc12`, for which the activation is inactive: -8.43%. On to `CC(NC(=O)COC(=O)C(O)(c1ccccc1)c1ccccc1)c1ccccc1` (stereo unspecified), for which the activation was inactive: -5.79%.

With `Cc1ccccc1OP(=O)(Nc1ccccn1)Oc1ccccc1C`, the activation is inactive: -6%. `O=[N+]([O-])c1cc([N+](=O)[O-])c2nc[nH]c2c1`: the activation is inactive: -3.09%. Consider `Cc1ccc(NP(=O)(Oc2cccc(C)c2)Oc2cccc(C)c2)nc1`, for which the activation is inactive: 3.55%.

Take `c1ccc(-c2nn[nH]n2)c(-c2nn[nH]n2)c1`: the activation was inactive: -4.05%. As for `CCNC(=S)/N=C(\N)N[N+](=O)[O-]`, the activation is inactive: -3.95%. Take `O=C(NC1CCS(=O)(=O)C1)NP(=S)(Oc1ccccc1)Oc1ccccc1` (stereo unspecified): the activation was inactive: -0.915%. Regarding `O=P1(N(CCCl)CCCl)OCCC2CCCCN21` (stereo unspecified), the activation was inactive: 0.33%. Regarding `O=[As](O)(c1ccccc1)c1ccc(O)cc1`, the activation was inactive: -2.72%. As to `O=[N+]([O-])c1ccc(O)c(/C=N/Nc2ccc([N+](=O)[O-])cc2[N+](=O)[O-])c1`, the activation was inactive: -2.69%. As for `O=[N+]([O-])c1ncn(CCn2cnc([N+](=O)[O-])n2)n1`, the activation is inactive: 0.457%. Consider `CC(=O)NC(SC(=S)N(C)C)C(Cl)(Cl)Cl` (stereo unspecified), for which the activation was inactive: 2.06%. As for `O=C(OC1CN2CCC1CC2)c1cccc(Cl)c1` (stereo unspecified), the figure is inactive: -1.87%; as for `C(Cc1nn[nH]n1)Cc1nn[nH]n1`, inactive: -2.12%; as for `Nc1ccc([As](=O)(O)c2ccc([N+](=O)[O-])cc2)cc1`, inactive: -2.44%. For `O=P(Nc1ccccn1)(c1ccc(Br)cc1)c1ccc(Br)cc1`, the activation is inactive: -0.56%.

Consider `CN(C)C1(CNC(=O)c2ccc(Cl)c(S(N)(=O)=O)c2)CCCCC1`, for which the activation was inactive: -5.82%. With `COc1ccc(N)c([N+](=O)[O-])c1[N+](=O)[O-]`, the activation was inactive: 5%.

In the case of `Nc1ccc(CCCCOc2ccccc2)cc1`, the activation is inactive: -0.915%. Regarding `CN(C(=O)Cc1ccccc1)[C@H]1CC[C@@]2(CCCO2)C[C@@H]1N1CCCC1`, the activation was inactive: -2.74%.

For `Cc1cc([N+](=O)[O-])cc([N+](=O)[O-])c1O`, the activation was inactive: 0.871%.

On to `C[C@H]1OP(=O)(Oc2ccccc2)[C@H](O)[C@H](O)[C@H]1N=[N+]=[N-]` (stereo partly specified), for which the activation is inactive: -1.07%. On to `O=P(Nc1nc2ccccc2s1)(c1ccccc1)c1ccccc1`, for which the activation was inactive: 1.2%. Take `COc1cccc([N+](=O)[O-])c1[N+](=O)[O-]`: the activation was inactive: -11.6%. For `CC(C)C(=O)NC(Sc1ccccc1)C(Cl)(Cl)Cl` (stereo unspecified), the activation was inactive: -3.46%. As to `O=P(Nc1nccs1)(c1ccccc1)c1ccccc1`, the activation is inactive: -1.04%.

Consider `c1nnnn1CCn1cnnn1`, for which the activation is inactive: -1.48%. As to `CCC(C)(OOC(C)(C)C)OOC(C)(C)C`, the activation was inactive: 3.16%.
